Test results: US7538096B2, “Treatment and prevention of abnormal cellular proliferation” (The General Hospital Corporation, priority 2004, dated 2009)

Tested on: coagulation
Assay: anticoagulant property (no test named)

O-Hexanoyl derivative of periodate-oxidized heparin fragments [hexanoylated heparin]
anticoagulant property: virtually no
